From patent publication US7732162

Experiments:
[Gln^1]-FPP = target: T1, [Gln^1]-FPP
T1 chain: QEP

[Gln^1]-TRH = target: T2, [Gln^1]-TRH
T2 chain: QHP

B1: recombinant human glutaminyl cyclase (QC) (protein)
chain: EEKNYHQPAILNSSALRQIAEGTSISEMWQNDLQPLLIERYPGSPGSYAARQHIMQRIQRLQADWVLEIDTFLSQTPYGYRSFSNIISTLNPTAKRHLVLACHYDSKYFSHWNNRVFVGATDSAVPCAMMLELARALDKKLLSLKTVSDSKPDLSLQLIFFDGEEAFLHWSPQDSLYGSRHLAAKMASTPHPPGARGTSQLHGMDLLVLLDLIGAPNPTFPNFFPNSARWFERLQAIEHELHELGLLKDHSLEGRYFQNYSYGGVIQDDHIPFLRRGVPVLHLIPSPFPEVWHTMDDNEENLDESTIDNLNKILQVFVLEYLHL
- KM ([Gln^1]-FPP): 87 µM
- KM ([Gln^1]-TRH): 90 µM
